Data as given in publication PMC8343220, “The selectivity of α‐adrenoceptor agonists for the human α1A, α1B, and α1D‐adrenoceptors” (Pharmacology Research & Perspectives, 2021).

Amino acid sequences for entries named in this document (tags omitted).
UniProt P35368, whole entry: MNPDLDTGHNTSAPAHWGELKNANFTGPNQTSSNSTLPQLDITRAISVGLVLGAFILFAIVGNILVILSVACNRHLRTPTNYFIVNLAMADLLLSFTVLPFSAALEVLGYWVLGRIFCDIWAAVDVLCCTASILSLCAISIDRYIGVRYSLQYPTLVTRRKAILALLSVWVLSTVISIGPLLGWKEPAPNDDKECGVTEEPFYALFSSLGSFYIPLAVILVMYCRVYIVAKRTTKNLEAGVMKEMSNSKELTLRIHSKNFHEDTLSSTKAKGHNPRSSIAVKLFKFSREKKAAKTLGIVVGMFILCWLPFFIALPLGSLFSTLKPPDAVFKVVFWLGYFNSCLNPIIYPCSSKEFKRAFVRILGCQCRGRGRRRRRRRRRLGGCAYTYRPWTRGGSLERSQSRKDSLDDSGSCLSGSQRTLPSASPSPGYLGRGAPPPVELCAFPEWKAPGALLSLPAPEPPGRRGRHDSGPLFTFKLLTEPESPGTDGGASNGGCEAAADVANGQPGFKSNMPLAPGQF
UniProt P35348, whole entry: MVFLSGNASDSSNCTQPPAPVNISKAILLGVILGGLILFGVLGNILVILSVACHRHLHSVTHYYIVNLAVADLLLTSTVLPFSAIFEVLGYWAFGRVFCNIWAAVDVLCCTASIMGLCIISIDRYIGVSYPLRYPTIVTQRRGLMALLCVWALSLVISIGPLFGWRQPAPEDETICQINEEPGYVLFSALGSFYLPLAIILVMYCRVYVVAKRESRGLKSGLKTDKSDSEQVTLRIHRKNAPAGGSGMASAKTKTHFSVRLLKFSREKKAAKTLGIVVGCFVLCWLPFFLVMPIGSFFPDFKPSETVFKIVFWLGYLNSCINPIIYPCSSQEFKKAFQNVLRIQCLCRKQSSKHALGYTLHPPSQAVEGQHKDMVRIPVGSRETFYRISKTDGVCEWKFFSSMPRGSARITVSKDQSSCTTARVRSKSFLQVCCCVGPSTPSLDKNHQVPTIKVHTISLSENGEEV

What was measured:
Assay type in all cases: cell-based
[1] = molecular target: T1, human α1B‐adrenoceptor (Homo sapiens, UniProt P35368); test: Intracellular free calcium mobilization, CHO‐α1B cells; details: response at 100 µM ligand (no EC50 given), % of ionomycin response
[2] = molecular target: T2, human α1A‐adrenoceptor (Homo sapiens, UniProt P35348); test: Intracellular free calcium mobilization, CHO‐α1A cells; details: given as log EC50 (negative)
[3] = molecular target: T2, human α1A‐adrenoceptor; test: ^3H‐cAMP accumulation in the presence of 10 μM forskolin, CHO‐α1A cells
[4] = molecular target: T2, human α1A‐adrenoceptor; test: ^3H‐cAMP accumulation, CHO‐α1A cells; details: 5 h
[5] = molecular target: T1, human α1B‐adrenoceptor; test: ERK1/2‐phosphorylation (Surefire Alphascreen), CHO‐α1B cells; details: maximal response as % PDBu response, for bi‐phasic responses the initial stimulatory part

## COc1ccccc1N1CCN(CCn2c(=O)[nH]c3c([nH]c4ccccc43)c2=O)CC1
[1]
  Intracellular calcium release % ionomycin at 100 µM: 4.6 ± 1.9%
[2]
  Intracellular calcium release Log EC50: −7.79 ± 0.12
[3]
  cAMP accumulation (in presence of forskolin) Log EC50: No response
[4]
  cAMP accumulation Log EC50: No response
[5]
  ERK1/2‐phosphorylation % PDBu: No response
